Experimental findings from patent US8318807B2 (Laurus Labs Private Limited, priority 2010, dated 2012) are described below.

Data set [1] is described as follows: Physical stability at elevated temperature and/or relative humidity, analysed by XRPD. It is filed as physicochemical. On the procedure:
Physical stability was evaluated at approximately 40° C., 60° C., 25° C./75% RH, 25° C./98% RH, and 40° C./75% RH and XRPD was used to detect dissociation or form conversion. Vials of each cocrystal were subjected to each condition for durations of two weeks, one month, and two months. Upon completion of the duration allowed, the samples were immediately analyzed by XRPD.

The nature of data set [2]: Physical stability upon slurrying in water. The settings on record: three days. The data set is classed as physicochemical. The source says: […]. […] […]. […]

Consider pterostilbene:piperazine [cocrystal 4], for which the “Results (by XRPD)” value is given as “cocrystal 4” in data set [1] (25° C./75% RH, 2 weeks); “cocrystal 4” in data set [1] (25° C./75% RH, 4 weeks); “cocrystal 4” in data set [1] (25° C./75% RH, 8 weeks); “cocrystal 4” in data set [1] (25° C./98% RH, 2 weeks); “cocrystal 4” in data set [1] (25° C./98% RH, 4 weeks); “cocrystal 4” in data set [1] (25° C./98% RH, 8 weeks). Also, the “Results (by XRPD)” value in data set [1] (40° C., 2 weeks) is on record as “cocrystal 4”; in data set [1] (40° C., 4 weeks) it was “cocrystal 4”; in data set [1] (40° C., 8 weeks), “cocrystal 4”; in data set [1] (40° C./75% RH, 2 weeks), “cocrystal 4”; in data set [1] (40° C./75% RH, 4 weeks), “cocrystal 4”; in data set [1] (40° C./75% RH, 8 weeks), “cocrystal 4”. The “Results (by XRPD)” value was “cocrystal 4” in data set [1] (60° C., 2 weeks); “cocrystal 4” in data set [1] (60° C., 4 weeks); “cocrystal 4” in data set [1] (60° C., 8 weeks). In data set [2], the “Behaviour upon slurrying in water” value is listed as “precipitation of pterostilbene”.
